Compound activity: PubChem, National Center for Advancing Translational Sciences (NCATS)
A selection: hits, their analogues and other compounds. The true share with any hit is near 2.1%.
A549 tox – counter-screen for Nrf2 inhibitors: cytotoxicity in A549 cells. Potency, µM (top dose mostly 46 µM), actives largely listed as inhibitors. 390,000 tested, 0.16% active. A549 ARE-Fluc cells, CellTiter-Fluor viability, 18-24 h
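A549 ARE_Fluc cells in 5% FBS OPTI-MEM were exposed to compounds in concentration-response for 18-24 h at 37 deg C. Viability was read by CellTiter-Fluor fluorescence (Ex 405/Em 525) after 30 min, before the luciferase read.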
Nrf2 ARE act – activates Nrf2 signaling. AREc32 ARE-luciferase reporter (MCF7-derived line), luminescence, 24 h. Potency, µM (titrated, usually from 46.1 µM), most hits filed as activators. 410,000 tested, 0.31% active; further: nearly all actives have a fitted effect of over 65% in size
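Each well held 1000 AREc32 cells, which were incubated with compound for 24 hr at 37 deg C after overnight attachment, and ARE reporter activity was quantified by firefly luciferase luminescence.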
Glioma ERSR ind – inducers of ER stress response in human glioma cells. U87-MG GRP78 promoter luciferase reporter, 16 h. Potency, µM, most hits filed as activators. 420,000 tested, 0.02% active. AID 602332; further: series mostly up to about 76 µM; nearly all actives have a fitted effect of over 35% in size
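Stably transfected U87-MG human glioma cells carrying a GRP78-based luminescent sensor were seeded at 1000 cells/well, pin-dosed with compounds and incubated 16 h. Luciferase reagent was then added, and end-point luminescence was read after 10 min at room temperature.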
Nrf2 inh – inhibitors of Nrf2 signaling; A549 ARE-Fluc reporter, luciferase luminescence, 18-24 h; Potency, µM (top dose mostly 46 µM), most hits filed as inhibitors; 360,000 tested, 2.1% active; AID 504444; further: nearly all actives have a fitted effect of over 60% in size
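In this cell-based qHTS, ARE-driven firefly luciferase in A549 cells reports Nrf2 activity; the luminescent signal after BugLite lysis is the measured value, with a prior CellTiter-Fluor read for cell health.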
miR-21 FLuc – miR-21 reporter, rising signal. HeLa miR-21 FLuc reporter, luciferase, 48 h. Potency, µM (highest dose often 38.3 µM). 340,000 tested, under 10 active. AID 2288; active = well fitted rising curve with a large enough effect; inconclusive = small, poorly fitted or top-dose-only effect; inactive = no such curve, though single readings can be large or run the other way;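 further: miR-21 action dims this reporter so a rising signal means less miR-21 action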
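HeLa miR-21-FLuc reporter line, endogenous miR-21; 2000 cells/well in DMEM/10% FBS; compound titration up to ~40uM final, 48 h, 37 degree Celsius; luciferase detection reagent, 15 min lysis, CCD luminescence.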
TSG101-PTAP inh – blocks PTAP/TSG101 interaction to inhibit HIV-1 budding; Q99816; Fluorescence polarization, FITC-PTAP peptide / Tsg101 binding; Potency, µM (top dose mostly 115 µM), most hits filed as inhibitors; 340,000 tested, under 10 active; AID 493005; active means well fitted inhibition curve with a large enough effect in the main read-out, with a control signal flat, not every such curve was filed as active; inconclusive means small, poorly fitted or top-dose-only effect, or effect the other way, or a change in a side signal; inactive means no such curve, though single readings can be large or run the other way
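Steps: Tsg101 binding domain dispensed (10 uM final), compounds pinned in DMSO, FITC-labeled PTAP-motif peptide added (50 nM final); after 20 min binding at room temperature, polarization measured.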
Numbers stand for hits. Unless noted, the call rests on the fitted dose curve; in most records, active means well fitted curve in the direction sought with a large enough effect; inconclusive means small, poorly fitted or top-dose-only effect, or another doubt; inactive means no such curve, though single readings can be large; an effect the other way counts as inactive or inconclusive.

What do the screens show for `O=C(NCC1OCCc2ccccc21)c1ccc(NC(=O)c2ccc(Cl)cc2Cl)cc1` (configuration not stated)?
A549 tox: inactive; Nrf2 ARE act: inactive; Glioma ERSR ind: inactive; Nrf2 inh: inactive; miR-21 FLuc: inactive; TSG101-PTAP inh: inactive

How did COc1ccccc1N1C(=O)N(C(C)=O)C2C1Nc1ccccc1N2C (configuration not stated) do in these assays?
A549 tox: 11.6µM; Nrf2 ARE act: inactive; Glioma ERSR ind: inactive; Nrf2 inh: inconclusive; miR-21 FLuc: inactive; TSG101-PTAP inh: inactive

How did CCC1(C2CCN(Cc3ccccc3Cl)CC2)NC(=O)N(CC2COc3ccccc3O2)C1=O (configuration not stated) do in these assays?
Glioma ERSR ind: inactive

How did CCOC(=O)C1=C(C)N=c2s/c(=C\c3cccc(OCC(=O)O)c3)c(=O)n2C1c1ccccc1OC (configuration not stated) do in these assays?
A549 tox: inactive; Nrf2 ARE act: inactive; Glioma ERSR ind: inactive; Nrf2 inh: inactive; miR-21 FLuc: inactive; TSG101-PTAP inh: inactive

Results for CCOC(=O)C1=C(c2ccccc2)N=c2s/c(=C\c3cccc(O)c3)c(=O)n2C1c1cccs1 (configuration not stated) ?
A549 tox: inconclusive; Nrf2 ARE act: inactive; Glioma ERSR ind: inactive; Nrf2 inh: 25.9µM; miR-21 FLuc: inconclusive; TSG101-PTAP inh: inactive

What do the screens show for `OCC1CCCN(c2nc3cc4c(cc3cc2CNCc2cccc(C(F)(F)F)c2)OCO4)C1` (configuration not stated)?
Glioma ERSR ind: inactive

How did CC12CC(c3ccccc3O1)N(C(=O)c1ccco1)C(=S)N2c1ccc(F)cc1 (configuration not stated) do in these assays?
A549 tox: inconclusive; Nrf2 ARE act: inactive; Glioma ERSR ind: inactive; Nrf2 inh: 16.4µM; miR-21 FLuc: inactive; TSG101-PTAP inh: inactive

What do the screens show for `O=C(c1ccc(N2CCC(NCCCn3ncc4ccccc43)CC2)cc1)N1CCc2ccccc2C1`?
Glioma ERSR ind: inactive

What do the screens show for `CS(=O)c1nc(-c2ccc(Br)cc2)cc(-c2ccccc2)c1C#N` (configuration not stated)?
A549 tox: inconclusive; Nrf2 ARE act: inactive; Glioma ERSR ind: inactive; Nrf2 inh: 14.6µM; miR-21 FLuc: inactive; TSG101-PTAP inh: inactive

Results for O=C(N/N=C\c1ccc2c(c1)OCO2)c1ccco1 ?
A549 tox: inactive; Nrf2 ARE act: inactive; Glioma ERSR ind: inactive; Nrf2 inh: inconclusive; miR-21 FLuc: inactive; TSG101-PTAP inh: inactive

What do the screens show for `O=C(N/N=C\c1cccc(OC(=O)c2ccco2)c1)c1ccc2c(c1)OCO2`?
A549 tox: inactive; Nrf2 ARE act: inactive; Glioma ERSR ind: inactive; Nrf2 inh: 2.31µM; miR-21 FLuc: inactive; TSG101-PTAP inh: inactive

Results for O=C(N/N=C/c1ccc2c(c1)OCO2)c1ccc2c(c1)OCO2 ?
A549 tox: inactive; Nrf2 ARE act: inactive; Glioma ERSR ind: inactive; Nrf2 inh: inactive; miR-21 FLuc: inactive; TSG101-PTAP inh: inactive

Results for O=C(N/N=C/c1cccc(O)c1)c1ccc2c(c1)OCCO2 ?
A549 tox: inactive; Nrf2 ARE act: inactive; Glioma ERSR ind: inactive; Nrf2 inh: 0.411µM; miR-21 FLuc: inactive; TSG101-PTAP inh: inactive

What do the screens show for `COc1ccc(-c2nc3ccc(NC(=O)CO)cc3c(=O)n2Cc2cccc(Cl)c2)cc1COc1ccc(NC(C)=O)cc1`?
A549 tox: inactive; Nrf2 inh: inconclusive

What do the screens show for `O=C(Nc1cccc(-c2nn3c(=O)cc(N4CCNCC4)nc3s2)c1)C1CCNCC1`?
A549 tox: inactive; Nrf2 inh: inactive

How did O=C(CCSc1ccc(Br)cc1)c1ccc(O)cc1 do in these assays?
A549 tox: inactive; Nrf2 ARE act: 15.8µM; Glioma ERSR ind: inactive; Nrf2 inh: inconclusive; miR-21 FLuc: inactive; TSG101-PTAP inh: inactive

What do the screens show for `COC(=O)c1sc(N2C(=O)C(O)=C(C(=O)c3ccc(C)o3)C2c2ccco2)nc1C` (configuration not stated)?
A549 tox: inactive; Nrf2 ARE act: inactive; Glioma ERSR ind: inactive; Nrf2 inh: inactive; miR-21 FLuc: inactive; TSG101-PTAP inh: inactive

Results for COC(=O)c1sc(N2C(=O)C(O)=C(C(=O)c3ccc(C)o3)C2c2cccs2)nc1C (configuration not stated) ?
A549 tox: inconclusive; Nrf2 ARE act: inactive; Glioma ERSR ind: inactive; Nrf2 inh: 20.6µM; miR-21 FLuc: inactive; TSG101-PTAP inh: inactive

Results for Cc1nc2ccccc2c(=O)n1NCc1cc(Br)cs1 ?
A549 tox: inactive; Nrf2 ARE act: 7.94µM; Glioma ERSR ind: inactive; Nrf2 inh: inactive; miR-21 FLuc: inactive; TSG101-PTAP inh: inactive

How did Cc1nc2ccccc2c(=O)n1NS(C)(=O)=O do in these assays?
A549 tox: inactive; Nrf2 ARE act: inactive; Glioma ERSR ind: inactive; miR-21 FLuc: inactive; TSG101-PTAP inh: inactive

Results for CCOc1cc(N2CCOCC2)c(OCC)cc1NC(=O)c1cc(-c2ccco2)nc2ccccc12 ?
A549 tox: inconclusive; Nrf2 ARE act: inactive; Glioma ERSR ind: inactive; Nrf2 inh: 14.6µM; miR-21 FLuc: inactive; TSG101-PTAP inh: inactive

What do the screens show for `COc1ccc(-c2cc(C(=O)Nc3ccccc3N3CCOCC3)c3ccccc3n2)cc1OC`?
A549 tox: inactive; Nrf2 ARE act: inactive; Glioma ERSR ind: inactive; Nrf2 inh: 14.6µM; miR-21 FLuc: inactive; TSG101-PTAP inh: inactive

What do the screens show for `O=C(Nc1ccccc1N1CCOCC1)c1cc(-c2ccncc2)nc2ccccc12`?
A549 tox: inactive; Nrf2 ARE act: inactive; Glioma ERSR ind: inactive; Nrf2 inh: inconclusive; miR-21 FLuc: inactive; TSG101-PTAP inh: inactive

Results for CCOc1cc(N2CCOCC2)c(OCC)cc1NC(=O)COc1ncnc2ccccc12 ?
A549 tox: inactive; Nrf2 ARE act: inactive; Glioma ERSR ind: inactive; Nrf2 inh: inactive; miR-21 FLuc: inactive; TSG101-PTAP inh: inactive

How did Cc1ccsc1CN(C)c1ncnc2ccc(-c3ccc4c(c3)OCO4)cc12 do in these assays?
A549 tox: inactive; Nrf2 inh: inactive

How did CCOc1ccccc1C(=O)NC1CC2CCCC(C1)N2Cc1nnnn1Cc1ccco1 (configuration not stated) do in these assays?
A549 tox: inactive; Nrf2 ARE act: inactive; Glioma ERSR ind: inactive; Nrf2 inh: inactive; miR-21 FLuc: inactive; TSG101-PTAP inh: inactive

How did O=C(NC1CC2CCC(C1)N2Cc1nnnn1Cc1ccco1)NC12CC3CC(CC(C3)C1)C2 (configuration not stated) do in these assays?
A549 tox: inactive; Nrf2 ARE act: inactive; Glioma ERSR ind: inactive; Nrf2 inh: 4.11µM; miR-21 FLuc: inactive; TSG101-PTAP inh: inactive
